The target of one test is human orexin 1 receptor (Homo sapiens (Human), UniProt O43613). As to the kind of experiment: Human orexin 1 receptor radioligand binding (competitive). Particulars: CHO cells stably expressing human orexin 1 receptor; 4 nM radioligand; averages of 2-20 runs; read-out: hOX1 Ki. As for the experimental part: (§1) The in vitro affinity of the compounds of the invention for the rat/human orexin 1 and human orexin 2 receptors was determined by competitive radioligand binding using [^3H](1-(5-(2-fluoro-phenyl)-2-methyl-thiazol-4-yl)-1-((S)-2-(5-phenyl-(1,3,4)oxadiazol-2-ylmethyl)-pyrrolidin-1-yl)-methanone) (Langmead et al., 2004) and [^3H]EMPA (n-ethyl-2[96-methoxy-pyridin-3-yl)-(toluene-2-sulfonyl)-amino]-N-pyridin-3-ylmethyl acetamide), respectively (Langmead et al., 2004, British Journal of Pharmacology 141:340-346; Malherbe et al., 2004, British Journal of Pharmacology 156:1326-41).
(§2) Data are analyzed using pc-Sandy macro and graphed on Graphpad Prism 5. For analysis, each concentration point is averaged from triplicate values and the averaged values are plotted on Graphpad Prism. The IC50 was determined by applying the following equation (GraphPad Prism 5.0, San Diego) for one site competition where X=log (concentration) and Y=specific binding. Top denotes the total [^3H]— (1-(5-(2-fluoro-phenyl)-2-methyl-thiazol-4-yl)-1-((S)-2-(5-phenyl-(1,3,4)oxadiazol-2-ylmethyl)-pyrrolidin-1-yl)-methanone) binding, bottom denotes the nonspecific [^3H]— (1-(5-(2-fluoro-phenyl)-2-methyl-thiazol-4-yl)-1-((S)-2-(5-phenyl-(1,3,4)oxadiazol-2-ylmethyl)-pyrrolidin-1-yl)-methanone) binding. Graphpad Prism calculates Ki value from IC50 and the pre-determined Kd values for [^3H]— (1-(5-(2-fluoro-phenyl)-2-methyl-thiazol-4-yl)-1-((S)-2-(5-phenyl-(1,3,4)oxadiazol-2-ylmethyl)-pyrrolidin-1-yl)-methanone) and [^3H]-EMPA. The Ki for each compound is then uploaded into 3DX. Each run comprises individual compounds in triplicate. The data in Table 1 and Table 2 represent averages from between 2-20 runs
(§3) Rat and Human Orexin 1 Receptor Radioligand Binding Studies
(§4) Human Embryonic Kidney 293 cells (HEK293) stably expressing rat orexin 1 receptor (Genebank accession number NM_001525) or Chinese ovary cells (CHO) stably expressing human orexin 1 receptor (Genebank accession number […]) were grown to confluency in DMEM (Hyclone, cat # SH30022), 10% FBS, 1× Pen/Strep, 1× sodium pyruvate, 10 mM HEPES, 600 μg/mL G418 and DMEM/F12 (Gibco, Cat #11039), 10% FBS, 1× Pen/Strep, 600 μg/mL G418 media, respectively on 150 cm^2 tissue culture plates, washed with 5 mM EDTA in PBS (HyClone Dulbecco's Phosphate Buffered Saline 1× with Calcium and Magnesium, Cat # SH30264.01, hereafter referred to simply as PBS) and scraped into 50 ml tubes. After centrifugation (2K×G, 5 min at 4° C.), the supernatant was aspirated and the pellets frozen and stored at −80° C. Cells were resuspended in PBS in the presence of 1 tablet of protease inhibitor cocktail (Roche, Cat. #11836145001) per 50 mL. […] Competition binding experiments in 96 well polypropylene plates were performed using [^3H]— (1-(5-(2-fluoro-phenyl)-2-methyl-thiazol-4-yl)-1-((S)-2-(5-phenyl-(1,3,4)oxadiazol-2-ylmethyl)-pyrrolidin-1-yl)-methanone) (Moraveck Corporation, specific activity=35.3 Ci/mmol), diluted to a 10 nM concentration in PBS (4 nM final). Compounds were solubilized in 100% DMSO (Acros Organics, Cat. #61042-1000) and tested over a range of 7 concentrations (from 0.1 nM to 10 μM). The final concentration of DMSO in the reactions is equal to or less than 0.1%. Total and nonspecific binding was determined in the absence and presence of 10 μM almorexant. The total volume of each reaction is 200 μL (20 μL of diluted compounds, 80 μL of [^3H]— (1-(5-(2-fluoro-phenyl)-2-methyl-thiazol-4-yl)-1-((S)-2-(5-phenyl-(1,3,4)oxadiazol-2-ylmethyl)-pyrrolidin-1-yl)-methanone) diluted in PBS and 100 μL of the cell suspension). Reactions were run for 60 min at room temperature and terminated by filtration through GF/C filter plates (PerkinElmer, Cat. #6005174) presoaked in 0.3% polyethylenimine using the cell harvester (PerkinElmer Filtermate). The plates were washed 3 times by aspirating 30 ml PBS through the plates. Plates were dried in 55° C. oven for 60 min, scintillation fluid was added, and the radioactivity was counted on a Topcount (Packard). […]

By UniProt entry, the sequences of proteins in these tests, tags left out.
UniProt O43613, whole entry: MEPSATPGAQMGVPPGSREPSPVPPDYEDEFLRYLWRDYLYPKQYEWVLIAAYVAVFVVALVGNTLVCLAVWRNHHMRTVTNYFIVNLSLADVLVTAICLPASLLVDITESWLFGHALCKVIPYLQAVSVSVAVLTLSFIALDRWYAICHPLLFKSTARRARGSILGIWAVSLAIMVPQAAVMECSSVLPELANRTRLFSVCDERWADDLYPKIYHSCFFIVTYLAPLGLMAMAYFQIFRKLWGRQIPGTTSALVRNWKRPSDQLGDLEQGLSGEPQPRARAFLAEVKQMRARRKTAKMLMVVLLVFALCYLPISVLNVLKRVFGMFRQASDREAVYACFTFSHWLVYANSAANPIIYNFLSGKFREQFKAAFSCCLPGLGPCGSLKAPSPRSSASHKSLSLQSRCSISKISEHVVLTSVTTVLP

The next test addresses rat orexin 1 receptor (Rattus norvegicus, UniProt P56718). As to the kind of experiment: Rat orexin 1 receptor radioligand binding (competitive). Conditions: HEK293 cells stably expressing rat orexin 1 receptor; 4 nM radioligand; averages of 2-20 runs; read-out: rOX1 Ki. As for the experimental part: as §1, §2, §3, §4

By Ki is commonly meant a measure of affinity in units of concentration, obtained from inhibition or displacement.

In the case of `CC1C2CC(Oc3ccc(C(F)(F)F)cn3)C(C2)N1C(=O)c1cccc(F)c1-c1ncc(F)cn1` (racemic) [Example 20, (R/S)-(3-fluoro-2-(5-fluoropyrimidin-2-yl)phenyl)(3-methyl-6-((5-(trifluoromethyl)pyridin-2-yl)oxy)-2-azabicyclo[2.2.1]heptan-2-yl)methanone], the Ki is 15 nM on human orexin 1 receptor and 12 nM on rat orexin 1 receptor.

For `CC1C2CC(Oc3ccc(C(F)(F)F)cn3)C(C2)N1C(=O)c1ccc(F)cc1-c1ncccn1` (racemic) [Example 17, (R/S)-(4-fluoro-2-(pyrimidin-2-yl)phenyl)(−3-methyl-6-((5-(trifluoromethyl)pyridin-2-yl)oxy)-2-azabicyclo[2.2.1]heptan-2-yl)methanone], the inhibition constant Ki on human orexin 1 receptor and at rat orexin 1 receptor was 11 nM throughout.

As to `CC1C2CC(Oc3ccc(C(F)(F)F)cn3)C(C2)N1C(=O)c1cc(F)ccc1-c1ncccn1` (racemic) [Example 18, (R/S)-(5-fluoro-2-(pyrimidin-2-yl)phenyl)(−3-methyl-6-((5-(trifluoromethyl)pyridin-2-yl)oxy)-2-azabicyclo[2.2.1]heptan-2-yl)methanone], the Ki on human orexin 1 receptor turned out to be 8 nM; at rat orexin 1 receptor, 7 nM.

For the compound `CCC1C2CC(Oc3ccc(C(F)(F)F)cn3)C(C2)N1C(=O)c1ccccc1-c1ncccn1` (racemic) [Example 214, (R/S)-[2-ethyl-5-[[5-(trifluoromethyl)-2-pyridyl]oxy]-3-azabicyclo[2.2.1]heptan-3-yl]-(2-pyrimidin-2-ylphenyl)methanone], the inhibition constant Ki on human orexin 1 receptor was found to be 10 nM; on rat orexin 1 receptor, 7 nM.

As for `CC1C2CC(Oc3ccc(C(F)(F)F)cn3)C(C2)N1C(=O)c1cc(F)ccc1-c1ncccn1` (single isomer, unassigned) [Example 18B, (5-fluoro-2-(pyrimidin-2-yl)phenyl)((1S*,3R*,4R*,6R*)-3-methyl-6-((5-(trifluoromethyl)pyridin-2-yl)oxy)-2-azabicyclo[2.2.1]heptan-2-yl)methanone], the inhibition constant (Ki) is 5 nM on human orexin 1 receptor and 3 nM on rat orexin 1 receptor.

As to `Cc1ccc(-n2nccn2)c(C(=O)N2C(C)C3CC(Oc4ccc(C(F)(F)F)cn4)C2C3)n1` (single isomer, unassigned) [Example 22, (R/S)-(6-methyl-3-(2H-1,2,3-triazol-2-yl)pyridin-2-yl)(3-methyl-6-((5-(trifluoromethyl)pyridin-2-yl)oxy)-2-azabicyclo[2.2.1]heptan-2-yl)methanone], the Ki at human orexin 1 receptor was 5 nM; on rat orexin 1 receptor, 9 nM.

With `Cc1ccc(-n2nccn2)c(C(=O)N2[C@H](C)[C@H]3C[C@@H](Oc4cnc5ccccc5c4)[C@@H]2C3)n1` (relative stereo) [Example 185, (6-methyl-3-(2H-1,2,3-triazol-2-yl)pyridin-2-yl)((1S*,3R*,4R*,6R*)-3-methyl-6-(quinolin-3-yloxy)-2-azabicyclo[2.2.1]heptan-2-yl)methanone], the inhibition constant (Ki) at human orexin 1 receptor was determined as 3 nM; at rat orexin 1 receptor, 2 nM.

`CC1C2CC(Nc3cnc(C(F)(F)F)cn3)C(C2)N1C(=O)c1ccccc1-n1nccn1` (racemic) [Example 68, (R/S)-(2-(2H-1,2,3-triazol-2-yl)phenyl)(3-methyl-6-((5-(trifluoromethyl)pyrazin-2-yl)amino)-2-azabicyclo[2.2.1]heptan-2-yl)methanone]: the figures for the Ki at human orexin 1 receptor and on rat orexin 1 receptor were 6 nM and 11 nM, respectively.

As for `Cc1ccc(C(=O)N2[C@H](C)[C@H]3C[C@@H](Oc4ccc(C(F)(F)F)cn4)[C@@H]2C3)c(-n2nccn2)n1` (relative stereo) [Example 25, (6-methyl-2-(2H-1,2,3-triazol-2-yl)pyridin-3-yl)((1S*,3R*,4R*,6R*)-3-methyl-6-((5-(trifluoromethyl)pyridin-2-yl)oxy)-2-azabicyclo[2.2.1]heptan-2-yl)methanone], the results for the Ki at human orexin 1 receptor and on rat orexin 1 receptor were 9 nM and 7 nM, respectively.

Turning to `Cc1ccc(-n2nccn2)c(C(=O)N2C(C)C3CC(Nc4cnc(C(F)(F)F)cn4)C2C3)n1` (single isomer, unassigned) [Example 69, (R/S)-(6-methyl-3-(2H-1,2,3-triazol-2-yl)pyridin-2-yl)(3-methyl-6-((5-(trifluoromethyl)pyrazin-2-yl)amino)-2-azabicyclo[2.2.1]heptan-2-yl)methanone], the Ki on human orexin 1 receptor is 11 nM; on rat orexin 1 receptor, 19 nM.

In the case of `Cc1cnc(C(=O)N2C(C)C3CC(Oc4ccc(C(F)(F)F)cn4)C2C3)c(-n2nccn2)c1` (racemic) [Example 11, (R/S)-(5-methyl-3-(2H-1,2,3-triazol-2-yl)pyridin-2-yl)(3-methyl-6-((5-(trifluoromethyl)pyridin-2-yl)oxy)-2-azabicyclo[2.2.1]heptan-2-yl)methanone], the inhibitory constant (Ki) at human orexin 1 receptor came out at 15 nM; on rat orexin 1 receptor it was 14 nM.

`Cc1ccc(C(=O)N2[C@H](C)[C@H]3C[C@@H](Oc4cnc(C(F)(F)F)cn4)[C@@H]2C3)c(-n2nccn2)n1` (relative stereo) [Example 49, (6-methyl-2-(2H-1,2,3-triazol-2-yl)pyridin-3-yl)((1S*,3R*,4R*,6R*)-3-methyl-6-((5-(trifluoromethyl)pyrazin-2-yl)oxy)-2-azabicyclo[2.2.1]heptan-2-yl)methanone]: the values for the Ki at human orexin 1 receptor and on rat orexin 1 receptor were 25 nM and 26 nM, respectively.

As to `Cc1ccc(C(=O)N2C(C)C3CC(Oc4ccc(C(F)(F)F)cn4)C2C3)c(-n2nccn2)n1` (racemic) [Example 10, (R/S)-(6-methyl-2-(2H-1,2,3-triazol-2-yl)pyridin-3-yl)(3-methyl-6-((5-(trifluoromethyl)pyridin-2-yl)oxy)-2-azabicyclo[2.2.1]heptan-2-yl)methanone], the Ki was found to be 23 nM at human orexin 1 receptor and 14 nM on rat orexin 1 receptor.

Turning to `Cc1ccc(-n2nccn2)c(C(=O)N2C(C)C3CC(Oc4ccc(C(F)(F)F)cn4)C2C3)n1` (single isomer, unassigned) [Example 22B, (6-methyl-3-(2H-1,2,3-triazol-2-yl)pyridin-2-yl)((1S*,3R*,4R*,6R*)-3-methyl-6-((5-(trifluoromethyl)pyridin-2-yl)oxy)-2-azabicyclo[2.2.1]heptan-2-yl)methanone], the inhibition constant (Ki) at human orexin 1 receptor turned out to be 6 nM; at rat orexin 1 receptor, 5 nM.

As to `C[C@@H]1[C@H]2C[C@@H](Oc3ccc(C(F)(F)F)cn3)[C@H](C2)N1C(=O)c1ncccc1-n1nccn1` (relative stereo) [Example 23, (3-(2H-1,2,3-triazol-2-yl)pyridin-2-yl)((1S*,3R*,4R*,6R*)-3-methyl-6-((5-(trifluoromethyl)pyridin-2-yl)oxy)-2-azabicyclo[2.2.1]heptan-2-yl)methanone], the Ki at human orexin 1 receptor and on rat orexin 1 receptor was 14 nM in each case.

As to `Cc1ccc(-n2nccn2)c(C(=O)N2C(C)C3CC(Nc4cnc(C(F)(F)F)cn4)C2C3)n1` (single isomer, unassigned) [Example 69B, (6-methyl-3-(2H-1,2,3-triazol-2-yl)pyridin-2-yl)((1S*,3R*,4S*,6R*)-3-methyl-6-((5-(trifluoromethyl)pyrazin-2-yl)amino)-2-azabicyclo[2.2.1]heptan-2-yl)methanone], the Ki on human orexin 1 receptor was 5 nM; at rat orexin 1 receptor, 7 nM.
